Earlier results, collected in publication PMC8498988, “Scaffold Hybridization Strategy Leads to the Discovery of Dopamine D3 Receptor-Selective or Multitarget Bitopic Ligands Potentially Useful for Central Nervous System Disorders” (ACS Chemical Neuroscience, 2021).

The chains behind the UniProt entries cited, without tags or fusion partners.
UniProt P28223, whole entry: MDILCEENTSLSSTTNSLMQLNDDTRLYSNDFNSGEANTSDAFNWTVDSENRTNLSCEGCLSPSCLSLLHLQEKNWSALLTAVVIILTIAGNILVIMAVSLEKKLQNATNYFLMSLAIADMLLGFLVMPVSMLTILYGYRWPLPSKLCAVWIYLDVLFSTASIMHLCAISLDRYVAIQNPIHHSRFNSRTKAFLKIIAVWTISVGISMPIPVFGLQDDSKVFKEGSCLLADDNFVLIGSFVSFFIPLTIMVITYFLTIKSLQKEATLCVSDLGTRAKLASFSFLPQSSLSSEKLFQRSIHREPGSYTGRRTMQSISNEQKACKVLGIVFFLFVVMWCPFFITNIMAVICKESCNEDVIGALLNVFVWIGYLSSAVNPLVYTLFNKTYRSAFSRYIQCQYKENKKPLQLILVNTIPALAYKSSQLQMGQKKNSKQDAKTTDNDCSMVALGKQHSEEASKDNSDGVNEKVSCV

Experiments:
5-HT2AR = 5-HT2AR (Homo sapiens, UniProt P28223); parameters: expressed in transfected cells; host or cells: HEK (HEK-h5HT2A); conditions: read-out: Ki ± SEM, 5-HT2AR; cited from earlier work
[1] = in 20% aqueous ethanol; cited from earlier work

| Structure (SMILES) | Ki (5-HT2AR) [nM] | experimental pKa value [1] |
| --- | --- | --- |
| COc1ccccc1OCCNCC1COCC(c2ccccc2)(c2ccccc2)O1 (centres unmarked) [compound 1] | 52.5 ± 4.4 |  |
| O=C1CCc2ccc(OCCCCN3CCN(c4cccc(Cl)c4Cl)CC3)cc2N1 [aripiprazole] |  | 7.6 |
